Assay results reported in publication PMC11636628 (Journal of receptor and signal transduction research, 2024).

The chains behind the UniProt entries cited, without tags or fusion partners.
UniProt P20272, whole entry: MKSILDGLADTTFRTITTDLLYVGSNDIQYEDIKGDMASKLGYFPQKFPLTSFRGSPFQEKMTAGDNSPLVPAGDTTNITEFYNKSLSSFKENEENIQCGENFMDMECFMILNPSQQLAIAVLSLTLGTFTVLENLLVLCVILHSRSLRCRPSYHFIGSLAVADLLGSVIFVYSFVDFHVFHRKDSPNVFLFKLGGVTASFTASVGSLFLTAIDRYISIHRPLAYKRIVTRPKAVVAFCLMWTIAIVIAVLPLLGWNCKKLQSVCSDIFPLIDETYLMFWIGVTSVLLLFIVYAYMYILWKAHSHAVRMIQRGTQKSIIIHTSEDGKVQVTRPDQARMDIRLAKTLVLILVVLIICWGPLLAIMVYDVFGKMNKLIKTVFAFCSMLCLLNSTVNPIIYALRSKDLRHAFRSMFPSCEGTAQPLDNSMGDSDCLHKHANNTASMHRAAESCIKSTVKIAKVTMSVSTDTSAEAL

Biological target: rat CB1 (Rattus norvegicus, UniProt P20272)
Experiment: thallium flux, HEK/GIRK cells
Type: cell-based

Q: `CCCCC/C=C\C/C=C\C/C=C\C/C=C\CCCC(=O)OC(CO)CO` [2-AG] was tested. Which EC50 did it give?
A: Its EC50 is 0.017 µM.
